Assay results reported in US12655139B2, “Isoxazolidines as RIPK1 inhibitors and use thereof” (SANOFI, priority 2020, dated 2026).
Where two headings read alike, the source gives them in different places.

Chains of the proteins cited; added tags and fusions are not shown. Residues count along the entry.
UniProt Q13546, 1-375 limits assumed: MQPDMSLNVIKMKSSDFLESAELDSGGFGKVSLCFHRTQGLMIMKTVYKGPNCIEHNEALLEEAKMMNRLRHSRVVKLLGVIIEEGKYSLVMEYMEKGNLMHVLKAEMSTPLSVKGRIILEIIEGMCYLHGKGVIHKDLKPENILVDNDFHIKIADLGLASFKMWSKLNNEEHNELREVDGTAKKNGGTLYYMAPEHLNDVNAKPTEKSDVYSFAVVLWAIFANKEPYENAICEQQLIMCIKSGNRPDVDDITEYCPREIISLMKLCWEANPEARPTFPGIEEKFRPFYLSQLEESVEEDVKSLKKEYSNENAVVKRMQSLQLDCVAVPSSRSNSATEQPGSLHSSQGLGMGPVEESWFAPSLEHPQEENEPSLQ

What was measured:
[1] = target: hRIPK1 (aa 1-375) fusion protein (Homo sapiens, UniProt Q13546); assay: ADP-Glo kinase assay, RIPK1 autophosphorylation; format: biochemical; settings: for IC50: read-out: ADP-Glo IC50, Table 1
[2] = tested on: U937 cells; assay: Cellular assay in U937 cells on cell death (necroptosis), TNFα/zVAD.fmk; settings: for IC50: read-out: U937 IC50, Table 2

| Structure (SMILES) | IC50 [1] | activity of S form compared with R form in ADP-Glo assay ([1]; example pairs 4/16 and 69/70) | IC50 ([1]; tested form: TFA) | IC50 [2] | activity of S form compared with R form in U937 assay ([2]; example pairs 4/16 and 69/70) | IC50 ([2]; tested form: TFA) |
| --- | --- | --- | --- | --- | --- | --- |
| N#Cc1cncc([C@@H]2CCON2C(=O)C2CCN(c3nccc(Cl)n3)CC2)c1 | 0.0197 µM |  |  | 0.0197 µM |  |  |
| Cc1ccc([C@@H]2CCON2C(=O)C2CCN(c3nccc(C(N)=O)n3)CC2)cn1 |  |  |  | 0.0376 µM |  |  |
| NC(=O)c1ccnc(N2CCC(C(=O)N3OCC[C@H]3c3cncc(F)c3)CC2)n1 | 0.00676 µM | significantly more active |  | 0.00611 µM | significantly more active |  |

More lines, main results first:

| IC50 [1] | activity of S form compared with R form in ADP-Glo assay ([1]; example pairs 4/16 and 69/70) | IC50 ([1]; tested form: TFA) | Structure (SMILES) | IC50 [2] | activity of S form compared with R form in U937 assay ([2]; example pairs 4/16 and 69/70) | IC50 ([2]; tested form: TFA) |
| --- | --- | --- | --- | --- | --- | --- |
| 0.0102 µM |  |  | N#Cc1cncc(C2CCON2C(=O)C2CCN(c3nccc(C(N)=O)n3)CC2F)c1 (stereo not drawn) | 0.185 µM |  |  |
| 0.331 µM |  |  | CN1CC(CNC(=O)c2ccnc(N3CCC(C(=O)N4OCC[C@H]4c4cncc(C#N)c4)CC3)n2)C1 | 1.47 µM |  |  |
| 0.043 µM |  |  | N#Cc1ccnc(N2CCC(C(=O)N3OCCC3c3cncc(F)c3)CC2)n1 (racemic) | 0.0449 µM |  |  |
|  |  | 0.935 µM | N#Cc1cncc([C@@H]2CCON2C(=O)C2CCN(c3ncnc(C(=O)O)c3F)CC2)c1 |  |  | 0.359 µM |
